Legend:
androgen receptor (AR) = target: T1, androgen receptor (AR) (Mus musculus, UniProt P19091); test: ChIP of AR binding to the Dll4 promoter in C9 cells; type: cell-based; conditions: pre-treatment with MDV3100 before DTH
T1 construct: cTEC C9 were stimulated for 2 h with DTH, with or without pretreatment for 30 minutes with MDV3100; endogenous in cells; host or cells: cTEC cell line C9
T1 sequence (P19091 1-899): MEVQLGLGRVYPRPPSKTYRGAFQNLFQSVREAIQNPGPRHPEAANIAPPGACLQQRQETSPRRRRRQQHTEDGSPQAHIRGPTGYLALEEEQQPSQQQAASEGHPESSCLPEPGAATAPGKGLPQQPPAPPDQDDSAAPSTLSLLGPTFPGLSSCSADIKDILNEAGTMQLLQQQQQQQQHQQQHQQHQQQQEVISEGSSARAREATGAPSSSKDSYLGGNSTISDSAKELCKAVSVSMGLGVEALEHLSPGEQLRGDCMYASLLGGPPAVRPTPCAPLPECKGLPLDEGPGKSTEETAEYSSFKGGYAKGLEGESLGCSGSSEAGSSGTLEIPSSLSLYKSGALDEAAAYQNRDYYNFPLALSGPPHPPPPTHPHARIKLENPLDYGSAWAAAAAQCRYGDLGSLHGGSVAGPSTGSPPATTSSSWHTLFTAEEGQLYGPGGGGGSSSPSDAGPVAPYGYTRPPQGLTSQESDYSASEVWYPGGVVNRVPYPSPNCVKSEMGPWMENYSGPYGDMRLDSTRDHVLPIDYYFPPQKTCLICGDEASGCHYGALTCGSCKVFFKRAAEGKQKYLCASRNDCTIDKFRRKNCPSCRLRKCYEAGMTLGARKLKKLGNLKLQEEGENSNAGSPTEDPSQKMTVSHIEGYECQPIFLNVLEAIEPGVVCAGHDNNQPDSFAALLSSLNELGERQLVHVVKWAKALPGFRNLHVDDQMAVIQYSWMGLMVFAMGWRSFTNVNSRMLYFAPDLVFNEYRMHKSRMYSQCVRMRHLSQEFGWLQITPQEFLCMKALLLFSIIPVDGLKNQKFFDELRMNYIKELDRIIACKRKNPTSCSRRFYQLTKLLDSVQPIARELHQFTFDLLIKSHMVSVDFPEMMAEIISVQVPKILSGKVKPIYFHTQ

mice = test: Survival after TBI with Degarelix plus LH analogue hCG; type: in vivo, mouse; conditions: Degarelix in addition to hCG, compared to Degarelix alone
Text: FIG. 12A, percent survival in mice given total body irradiated (TBI, black circle), mice given total body irradiated plus castration (TBI+castration, grey triangle) and mice given total body irradiated plus castration and treated with Degarelix (TBI+castration+LHRH-Ant, grey inverted triangle). FIG. 12B, ng/mL levels of testosterone, luteinizing hormone (LH) and follicle-stimulating hormone (FSH) at 2, 7 and/or 14 days after a lethal dose of total body irradiation among control (open bars), lethal total body irradiated (LTBI, black bars) and lethal total body irradiation treated with Degarelix (LTBI+LHRH-Ant, grey bars). FIG. 12C, percent survival in mice given total body irradiation (TBI) and treated with Degarelix plus PBS (grey squares), and in mice given total body irradiation (TBI) and treated with Degarelix and a LH analogue (human chorionic gonadotropin, hCG; black circles).
In yet another experiment, mice were irradiated and administered Degarelix and a luteinizing hormone analogue (human chorionic gonadotropin, hCG). Consistent with our hypothesis, hematopoietic stem cells express the LH receptor and LT-HSCs express the LH receptor even more highly.

Q: With `CNC(=O)c1ccc(N2C(=S)N(c3ccc(C#N)c(C(F)(F)F)c3)C(=O)C2(C)C)cc1F` [MDV3100, Enzalutamide] as the compound, how does the “AR interaction with Dll4 promoter region C” value (androgen receptor (AR)) read?
A: partially impeded

Q: For human chorionic gonadotropin [hCG], which survival (mice) is on record?
A: significantly worse survival

Source: patent US20200268852A1, “HEMATOPOIETIC RECOVERY FROM RADIATION INJURY” (priority 2013, published 2020)
